The data set deals with rats. Kind of data set: Repeat dose I.V. rat study with GMP grade galactomannan (Example 8). It is filed as in vivo. On the procedure: Studies with repeat dose I.V. in rats with up to 52-day recovery period was performed using filtered GMP grade galactomannan material containing 48 or 96 mg/kg (288 or 576 mg/m2). Five animals of each sex were sacrificed at days 5, 28 and 56.
The galactomannan of the invention has minimal histological effects with only 1/30 rats injected with 48 mg/kg dose of the GMP galactomannan clinical solution having granulomatous inflammation. […] It was concluded that galactomannan clinical solutions, up to a dose of 15 mg/kg (555 mg/m2; 9 mg/mL), is safe for human use and poses no undue risk to health.

With “(((1,4)-linked β-D-mannopyranose)17-((1,6)-linked-β-D-galactopyranose)10)12) [GM]”, where the note is “96 mg/kg IV for four consecutive days”, the “histologic findings in the lung, sacrifice at day 5” value is listed as “low incidence of trace-level granulomatous inflammation of the lung”. Also, for the setting “male rats, 96 mg/kg”, the “histologic findings in the lungs, sacrifice on day 28” value is reported as “increased incidence of trace-level interstitial inflammation in the lungs” and the “histologic findings in the lungs, sacrifice on day 56” value is “increased incidence of trace-level alveolar macrophage accumulation”.

The record behind these values is US7893252B2, “Selectively depolymerized galactomannan polysaccharide” (priority 2003, dated 2011).
